Results: US7294648B2, “Anthranyl derivatives having an anticholecystokinin activity (anti-cck-1), a process for their preparation, and pharmaceutical use thereof” (Rottapharm S.p.A., priority 2002, dated 2007)

Amino acid sequences for entries named in this document (tags omitted). Residues count along the entry.
UniProt P30551, whole entry: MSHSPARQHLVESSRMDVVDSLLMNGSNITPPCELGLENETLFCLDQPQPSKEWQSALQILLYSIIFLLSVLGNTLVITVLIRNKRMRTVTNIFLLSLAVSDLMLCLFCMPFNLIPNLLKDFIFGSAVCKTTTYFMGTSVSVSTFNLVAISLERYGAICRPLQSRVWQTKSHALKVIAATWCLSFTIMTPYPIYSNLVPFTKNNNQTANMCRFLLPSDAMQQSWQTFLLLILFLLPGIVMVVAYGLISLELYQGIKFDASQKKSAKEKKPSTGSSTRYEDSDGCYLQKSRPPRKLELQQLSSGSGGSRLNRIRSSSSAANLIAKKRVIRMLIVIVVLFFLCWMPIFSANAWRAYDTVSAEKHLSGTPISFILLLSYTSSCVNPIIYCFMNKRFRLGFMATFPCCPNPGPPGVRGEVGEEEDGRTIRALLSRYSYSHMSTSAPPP
UniProt H0VZC5, 1-426: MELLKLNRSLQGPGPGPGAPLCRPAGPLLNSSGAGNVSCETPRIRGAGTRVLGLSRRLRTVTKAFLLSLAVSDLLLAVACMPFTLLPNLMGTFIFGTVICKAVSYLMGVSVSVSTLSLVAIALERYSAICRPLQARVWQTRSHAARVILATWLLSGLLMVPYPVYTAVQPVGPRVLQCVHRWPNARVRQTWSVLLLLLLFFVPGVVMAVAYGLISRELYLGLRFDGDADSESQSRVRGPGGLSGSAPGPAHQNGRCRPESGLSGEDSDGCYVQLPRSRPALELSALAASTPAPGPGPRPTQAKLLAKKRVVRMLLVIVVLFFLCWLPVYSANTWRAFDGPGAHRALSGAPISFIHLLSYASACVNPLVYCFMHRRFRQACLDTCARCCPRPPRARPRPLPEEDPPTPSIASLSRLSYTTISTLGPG

How the values were obtained:
[1] = molecular target: CCK-1 receptors (Rattus norvegicus, UniProt P30551); test: Inhibition of binding of [125I]-BH-CCK-8 to isolated rat pancreatic acini; settings: read-out: IC50, inhibition of binding of [125I]-BH-CCK-8 to isolated rat pancreatic acini; 30 minutes at 37° C.; at least 3 experiments
[2] = molecular target: CCK-2 receptor (Cavia porcellus, UniProt H0VZC5); test: Inhibition of the binding of [125I]-BH-CCK-8 to the cortical membrane of guinea pigs; settings: read-out: IC50, inhibition of the binding of [125I]-BH-CCK-8 to the cortical membrane of guinea pigs; 120 minutes at 25° C.; 25 pM marked binder; at least 3 tests
Experimental: (§1) For this purpose binding tests were performed on cerebral cortex of male albino guinea pigs outbred from the Hartley strain, using as marked binder the [^125I]-BH-CCK-8 sulphate, according to the procedure described by Makovec F. [J. Med. Chem. 35, (1992),28].
(§2) The incubation of the cerebral membranes together with the radioactive tracers and the compounds under study was effected on multi-well plates for 120 minutes at 25° C. Each well contained membrane corresponding to about 0.5 mg of proteins/ml and 25 pM of marked binder in a total volume of 250 micro litres. The specific binding was determined as the difference between the binding in the absence and in the presence of CCK-8, 1.10^−6M. At the end of the incubation a rapid filtration of the plate was performed under vacuum and the radioactivity of the individual filters extracted from the wells was measured with a γ-emission counter. The results obtained are shown in Table 3, in which the tested compounds are indicated, the IC50 calculated with the regression method on a set of at least 3 tests for each compound studied and an index derived from the ratio of the affinity obtained for the two types of receptor CCK-2 and CCK-1.

[3] = tested on: CCK-2 receptor; test: as above; settings: IC50 CCK-2 (guinea pig cortex) / IC50 CCK-1 (rat pancreatic acini, Table 2)
Experimental: as §1, §2

IC50 [1]: 0.02 µM | IC50 [2]: 14.8 µM | index derived from the ratio of the affinity obtained for the two types of receptor CCK-2 and CCK-1 [3]: 740
Compound: CCC(CC)CCC(NC(=O)c1ccccc1NC(=O)c1cc2ccccc2[nH]1)C(=O)O (stereo not drawn)
